From PMC3613864 (Cell, 2012)

System: 6133/MPL cells
Experiment: Drug treatment of mice transplanted with 6133/MPL cells
Format: in vivo, C57Bl/6 mice
Details: 15 mg/kg oral gavage twice a day for 3 days, bone marrow

COc1cc(Nc2ncc3c(n2)-c2ccc(Cl)cc2C(c2c(F)cccc2OC)=NC3)ccc1C(=O)O [MLN8237, Alisertib]
polyploidization of 6133/MPL cells in vivo: induced polyploidization of the malignant cells in vivo
